Shown are actives, neighbours in structure and some others; about 1.2% of the full set was active somewhere.
Yeast UUG start = alters start codon recognition fidelity in yeast; S. cerevisiae UUG-firefly luciferase reporter, luminescence/redox ratio; activity score, % at 18.7 µM; actives 0.13% (n = 350,000); AID 602363;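 active = replicate mean at a twofold rise or more, about +100% in these data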;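 also: firefly luciferase made from a UUG start codon reports start codon fidelity; reporter light over untreated wells divided by growth signal over untreated wells; some hits fall short of that in this replicate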
Glyco luc inh = blocks N-linked glycosylation in D54 reporter cells. D54 ERlucT glycosylation luciferase reporter, 24 h; percent of 100 nM tunicamycin response. reporter increase, % at 12.5 µM. 0.23% of 360,000 active;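 active means mean luciferase reporter signal, scaled so untreated is 0 and the glycosylation-blocking control 100, at or above a set limit in every replicate; inconclusive means mean reaches the limit but not every replicate does; inactive means mean below the limit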;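 further: luciferase carries N-glycosylation sites so blocking glycosylation raises the light; 0% = median of neutral control wells and 100% = median of 100 nM tunicamycin wells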
Cneo AK release = Cryptococcus neoformans lysis via adenylate kinase release; C. neoformans lysis, adenylate kinase release luminescence, 4 h; normalised: neutral wells 0, clomiphene wells 100; lysis activity, % at 15 µM; AID 651654; 0.2% of 360,000 active;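 active means mean lysis activity across replicates of at least 80%, whatever share of replicates individually reach that level; inactive means mean lysis activity below 80%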
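Assay system: log-phase C. neoformans yeast / Quantity: yeast cell density of 5 × 10^6 cells/mL / Medium: fresh YPD growth medium / Compound: single dose / Timing: static 4 h at 37 °C with compound, 1 h detection / Measured by: adenylate kinase release luminescence / Read-out: lysis from increased AK signal / Benchmarks: Clomiphene as positive lysis control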
Statin myotox sup = suppressors of simvastatin-induced myotoxicity in C2C12 myotubes; ATP luminescence, 48 h; scaled: DMSO 0, geranylgeraniol control 100; rescue of ATP level, % at 7.49 µM; 0.78% of 330,000 active; AID 602340;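 active means mean ATP rescue above about 67%, or every replicate alone reaching that limit, limit read from the data, passing the limit was not always enough; inconclusive means no clear call, values can overlap the other calls; inactive means mean under the limit and some replicate under it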;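 further: myotubes were challenged with 10 µM simvastatin during compound exposure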
miR122 inh = miR-122 inhibition in Huh7 cells; Huh7 miR-122 Renilla luciferase sensor, 48 h; neutral wells = 0, positive control = 100; activation (reporter increase), % at 12.5 µM; 0.3% of 340,000 active; AID 602342;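 active means mean replicate activation score at least 90 and every replicate individually at or above 90; inconclusive means only one of the two criteria met; inactive means neither criterion met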;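 further: higher luciferase means less miR-122 activity so hits act as miR-122 inhibitors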
The depositor's hits bear a star; ? = inconclusive; · = no result given; [ ] = remark or other dose.

Codes – A = Yeast UUG start; B = Glyco luc inh; C = Cneo AK release; D = Statin myotox sup; E = miR122 inh
CCOc1ccc(NCc2cccn2-c2nnc(N3CCC(C(=O)NCCCN4C(C)CCCC4C)CC3)s2)cc1 (stereo not drawn)
  A: -15.1	B: 0.9	C: 11.6	D: 102.5*	E: 2.6
CC(C)(C)C1C/C(=C/c2ccccn2)C(=O)/C(=C/c2ccccn2)C1 (stereo not drawn)
  A: -5.8	B: -23.0	C: -8.1	D: 116.4*	E: 51.9
Cc1[nH]c2ccccc2c1/C=N/NC(=O)c1cc(-c2ccncc2)nc2ccccc12
  A: -4.4	B: 37.3*	C: -0.9	D: -65.6	E: ·
CC(C)Sc1ccccc1C(=O)Nc1ccc2c(c1)n(C)c(=O)n2C
  A: -11.4	B: 34.5*	C: -0.8	D: 20.2	E: ·
Cn1c(=O)n(C)c2cc(NC(=O)CCl)ccc21
  A: ·	B: 82.3*	C: ·	D: 10.8	E: 4.7
CC(=O)Nc1ccc2c(c1)n(C)c(=O)n2C
  A: 5.7	B: 3.7	C: 1.5	D: -3.8	E: ·
Cn1c(=O)n(C)c2cc(NC(=O)c3ccccc3)ccc21
  A: 2.9	B: 10.1	C: -0.6	D: 3.2	E: 0.0
Cc1ccc(S(=O)(=O)N(C)C[C@H]2OCCCC[C@H](C)Oc3ccc(NC(=O)CCCN(C)C)cc3C(=O)N([C@@H](C)CO)C[C@H]2C)cc1
  A: 3.8	B: ·	C: -1.4	D: ·	E: 2.2[16.7 µM]
COC(=O)C1=C(C)N=C2SC(C)C(=O)N2C1c1ccc(C(=O)OC)cc1 (stereo not drawn)
  A: -36.0	B: -0.1	C: -6.4	D: -0.7	E: 0.6
COC(=O)C1=C(C)N=C2SC(C)C(=O)N2C1c1cccs1 (stereo not drawn)
  A: -4.2	B: 0.9	C: -1.1	D: 120.9*	E: 5.3
O=C(C[C@H]1C[C@@H]2c3cc(NC(=O)C4CCOCC4)ccc3O[C@@H]2[C@H](CO)O1)NCc1ccccc1
  A: -7.4	B: ·	C: -0.2	D: -4.2	E: 5.4[16.7 µM]
Cc1ccc(C)c(/C(O)=C2\C(=O)C(=O)N(CCCn3ccnc3)C2c2ccncc2)c1 (stereo not drawn)
  A: -8.1	B: 0.3	C: 2.0	D: 83.7*	E: 4.1
Cc1ccc(C2/C(=C(/O)c3ccc4c(c3)CC(C)O4)C(=O)C(=O)N2CCCn2ccnc2)cc1 (stereo not drawn)
  A: -17.1	B: 1.8	C: -1.0	D: 18.6	E: -3.5
C=CCn1c(Br)nc2c1c(=O)[nH]c(=O)n2C
  A: -14.9	B: ·	C: 0.4	D: ·	E: -2.0
C=CC(C)n1c(Br)nc2c1c(=O)[nH]c(=O)n2C (stereo not drawn)
  A: ·	B: 1.8	C: ·	D: ·	E: 154.3*

Codes – A = Yeast UUG start; B = Glyco luc inh; C = Cneo AK release; D = Statin myotox sup; E = miR122 inh
Cc1ccc(N(Cc2ccco2)C(=O)c2ccc(N3CCCCC3)c([N+](=O)[O-])c2)cc1
  A: -8.5	B: -4.3	C: -0.1	D: 0.3	E: 164.5*
CN(C(=O)c1ccc(S(=O)(=O)N2CCCC2)cc1)C1CCS(=O)(=O)C1 (stereo not drawn)
  A: -1.3	B: 2.1	C: -2.0	D: -3.6	E: ·
O=C(NCc1ccco1)c1ccc(N2CCCCC2)c([N+](=O)[O-])c1
  A: -2.7	B: -0.8	C: 2.8	D: ·	E: -0.1
CN(C(=O)c1ccc(N2CCCCC2)c([N+](=O)[O-])c1)C1CCS(=O)(=O)C1 (stereo not drawn)
  A: -13.6	B: 0.3	C: -0.7	D: 108.2*	E: -2.2
COCC(=O)Nc1ccc2c(c1)[C@@H]1C[C@@H](CC(=O)NCc3ccc(Cl)cc3)O[C@H](CO)[C@@H]1O2
  A: -4.5	B: ·	C: -5.4	D: -0.3	E: 3.8[16.7 µM]
Cc1cccc(NCCNc2cccc(C)c2)c1
  A: -17.6	B: -2.0	C: 0.0	D: 113.2*	E: ·
CCCCCCCNc1cccc(C)c1
  A: ·	B: 1.7	C: ·	D: -9.3	E: ·
O=C(COc1ccc2c(-c3ccccc3)cc(=O)oc2c1)N[C@@H](Cc1c[nH]c2ccc(O)cc12)C(=O)O
  A: 1.7	B: 50.1*	C: -0.8	D: -1.2	E: -0.4
O=C(COc1ccc2c(-c3ccccc3)cc(=O)oc2c1)NC(Cc1c[nH]c2ccccc12)C(=O)O (stereo not drawn)
  A: 17.2	B: 1.8	C: 11.0	D: 3.9	E: 2.7
C[C@H](CO)N1C[C@H](C)[C@@H](CN(C)Cc2ccc(Oc3ccccc3)cc2)Oc2ccc(NC(=O)Nc3ccc4c(c3)OCO4)cc2C1=O
  A: 45.5	B: ·	C: 100.8*	D: ·	E: -1.2[16.7 µM]
C[C@@H]1CN([C@@H](C)CO)C(=O)c2cc(NC(=O)Nc3ccc4c(c3)OCO4)ccc2O[C@H]1CN(C)Cc1ccc(Oc2ccccc2)cc1
  A: 49.8	B: ·	C: 89.0*	D: ·	E: 7.0[16.7 µM]
O=C(Cc1ccccc1[N+](=O)[O-])Nc1nccs1
  A: -0.1	B: 1.9	C: -4.6	D: ·	E: 1.8
CC(C)Cc1nnc(NC(=O)Cc2ccccc2[N+](=O)[O-])s1
  A: 1.4	B: 4.4	C: 4.6	D: -3.1	E: 126.1*
C[C@@H]1CN([C@@H](C)CO)C(=O)c2cc(NC(=O)CCCN(C)C)ccc2O[C@@H]1CN(C)Cc1ccccc1
  A: -17.6	B: ·	C: -7.1	D: 15.1	E: 11.5[16.7 µM]
CCN(CC)S(=O)(=O)c1ccc(N2CCOCC2)c(NC(=O)c2[nH]c(C)c(C(C)=O)c2C)c1
  A: -2.1	B: 63.1*	C: -4.6	D: 11.1	E: 13.3

3 successive records already listed, for reference:
Codes – A = Yeast UUG start; B = Glyco luc inh; C = Cneo AK release; D = Statin myotox sup; E = miR122 inh
CC(C)Cc1nnc(NC(=O)Cc2ccccc2[N+](=O)[O-])s1
  A: 1.4	B: 4.4	C: 4.6	D: -3.1	E: 126.1*
C[C@@H]1CN([C@@H](C)CO)C(=O)c2cc(NC(=O)CCCN(C)C)ccc2O[C@@H]1CN(C)Cc1ccccc1
  A: -17.6	B: ·	C: -7.1	D: 15.1	E: 11.5[16.7 µM]
CCN(CC)S(=O)(=O)c1ccc(N2CCOCC2)c(NC(=O)c2[nH]c(C)c(C(C)=O)c2C)c1
  A: -2.1	B: 63.1*	C: -4.6	D: 11.1	E: 13.3

Further entries follow:
Codes – A = Yeast UUG start; B = Glyco luc inh; C = Cneo AK release; D = Statin myotox sup; E = miR122 inh
CCN(CC)S(=O)(=O)c1ccc(N2CCOCC2)c(NC(=O)c2ccc(F)cc2)c1
  A: ·	B: 3.7	C: ·	D: ·	E: ·
Cc1ccccc1OCC(=O)NNC(=O)Nc1ccc(Cl)cc1
  A: -4.8	B: 13.0	C: -0.5	D: -34.4	E: 143.6*
CCC(=O)Nc1ccc2c(c1)C(=O)N(C)C[C@H](OC)[C@@H](C)CN(C(=O)c1cccnc1)[C@H](C)CO2
  A: -10.0	B: ·	C: -0.6	D: -6.5	E: -17.8[16.7 µM]
Cc1nn(-c2ccccc2)c(Cl)c1/C=N/Nc1nc2ccccc2[nH]1
  A: ·	B: 65.8*	C: ·	D: ·	E: ·
Cc1cc(=O)[nH]c(N/N=C/c2c(C)nn(-c3ccccc3)c2Cl)n1
  A: ·	B: -3.0	C: ·	D: 6.2	E: -1.3
CC(=O)C1CCC2C3CC=C4CC(SC(=N)N)CCC4(C)C3CCC12C (stereo not drawn)
  A: ·	B: 3.7	C: ·	D: ·	E: ·
O=C(CSc1ncnc2nc[nH]c12)c1ccc([N+](=O)[O-])cc1
  A: ·	B: 45.2*	C: ·	D: ·	E: ·
CCOC(=O)c1cc([N+](=O)[O-])cc([N+](=O)[O-])c1Sc1ncnc2nc[nH]c12
  A: ·	B: 98.9*	C: ·	D: ·	E: 7.9
CCOC(=O)C(C)(C)Sc1ncnc2nc[nH]c12
  A: -21.2	B: 0.4	C: -0.2	D: 9.4	E: -7.5
O=C(CSc1ncnc2nc[nH]c12)c1ccc(Cl)cc1
  A: -5.9	B: ?	C: -3.0	D: 12.4	E: 4.3
Cc1oc2cc(O)cc(C)c2c(=O)c1-c1cnn(-c2ccccc2)c1
  A: -41.6	B: -0.2	C: 0.8	D: 88.9*	E: -8.9
Cc1oc2c(O)c(O)ccc2c(=O)c1-c1cnn(-c2ccccc2)c1
  A: -4.9	B: -3.3	C: -0.2	D: ·	E: 5.2
CC(=O)c1ccc(N2CCN(C(=O)Cn3cnc(S(=O)(=O)N4CCCCC4)c3)CC2)cc1
  A: -11.7	B: 1.0	C: 1.0	D: 98.4*	E: -0.8
CC(=O)c1ccc(N2CCN(C(=O)Cc3cccs3)CC2)cc1
  A: -1.2	B: 0.7	C: 153.2*	D: 1.4	E: -1.4
COc1ccc(N2CCN(C(=O)Cc3cccs3)CC2)cc1
  A: -8.0	B: -1.3	C: -0.7	D: ·	E: -3.5

Codes – A = Yeast UUG start; B = Glyco luc inh; C = Cneo AK release; D = Statin myotox sup; E = miR122 inh
C[C@H](O)C#Cc1cnc2c(c1)C(=O)N([C@@H](C)CO)C[C@H](C)[C@H](CN(C)C(=O)Nc1ccc(F)cc1)O2
  A: 2.6	B: ·	C: -0.7	D: 14.3	E: -2.6[16.7 µM]
COc1cc(C2C(C#N)=C(N)Oc3cc(O)ccc32)cc(OC)c1OC (stereo not drawn)
  A: -21.2	B: 46.0*	C: 0.3	D: -114.1	E: 2.8
CCn1c2ccccc2c2cc(NC(=O)c3cc(OC)c(OC)c(OC)c3)ccc21
  A: -6.2	B: 26.6*	C: 0.1	D: -74.1	E: 69.0
CCn1c2ccccc2c2cc(NC(=O)c3cc(OC)cc(OC)c3)ccc21
  A: ·	B: 9.5	C: ·	D: ·	E: ·
